# Apparent affinities of Ab-91 variants for a coronavirus HR2 peptide

Target: peptide PDVDLGDISGINAS, taken from heptad repeat 2 (HR2) of SARS-CoV-2 spike.

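The starting antibody came from a phage panning campaign against this peptide. The library (AAYL51) carries one to three amino acid substitutions per variant, with no insertions or deletions. The scFvs were displayed on barcoded MATa yeast, the peptide on MATalpha yeast. Pairs that bind mate more often; barcode pairs of the diploids are counted by sequencing. Read counts were normalised to the haploid input and turned into Kd by a linear fit to BCL2-family pairs of known affinity, for each replicate. Each pool was mated in three replicate cultures.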

Parent: Ab-91, a human scFv built as VL, three GGGGS repeats, VH. Only the CDRs of the heavy chain vary.
VL: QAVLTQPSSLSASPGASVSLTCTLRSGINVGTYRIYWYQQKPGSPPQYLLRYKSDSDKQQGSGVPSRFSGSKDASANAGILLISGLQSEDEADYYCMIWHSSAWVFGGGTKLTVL
VH: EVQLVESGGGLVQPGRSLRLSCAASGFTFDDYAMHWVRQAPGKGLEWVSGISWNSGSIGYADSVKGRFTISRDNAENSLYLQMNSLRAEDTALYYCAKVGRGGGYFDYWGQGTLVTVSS

Each variant is given by its three heavy chain CDRs, as the data file delimits them; those of the parent are GFTFDDYAMH, GISWNSGSIGYADSVK, VGRGGGYFDY.
Numbers give log10(Kd / nM), so 0 is 1 nM and 3 is 1 µM. Smaller is tighter.
"nd" marks a missing value. The strain was present, yet no cells mated with the target were sequenced in that replicate, which points to weak or no binding.
Parent in this assay: reference entry 1.86, copy in this library 0.88.
Three control strains display no target. For library AAYL51, 21% of the pairings with them gave a signal, with a median of 4.54 and one signal in twenty below 3.26, so weak values seen in few replicates may be background. The control count says in how many pairings with the empty strains this scFv gave a signal, with their mean in brackets.

CDR-H1,CDR-H2,CDR-H3,log10 Kd (nM) by replicate,control signals
EFTFDDYAMH,GISWCSGSIGYADSCK,VGRGGGYFDY,nd / nd / nd,0 of 9
GFTFDDYAMH,GISWNSGSIGRADSVK,VGRGNGYFDY,nd / 5.09 / nd,2 of 9 (4.34)
GFTFDDYAMH,MISWNSGSDGYADSVF,VGRGGGYFDY,4.74 / 5.98 / nd,3 of 9 (5.15)
GFTSDDYKMH,GISWNSGSIGYADSVK,VGRGGGYFDY,3.64 / 3.84 / 5.20,4 of 9 (4.68)
GFTFWDYAMH,GISWVSGSIGYADSVK,NGRGGGYFDY,nd / nd / nd,5 of 9 (4.70)
GRTFDDRAMH,GISWNSGSIGYADNVK,VGRGGGYFDY,nd / nd / 5.04,4 of 9 (4.46)
GFTFDDYAMH,GLSWNNGSIGYADSVK,NGRGGGYFDY,nd / nd / nd,4 of 9 (4.95)
GSYFDDYWMH,GISWNSGSIGYADSVK,VGRGGGYFDY,nd / nd / nd,0 of 9
GFTDDDYAMH,GISWNSGSIGYADSVK,VGVGGGYFDL,5.37 / 6.07 / 6.07,6 of 9 (5.06)
GFTFDDYPMH,GISWNSASIGYADSVK,VGRGGSYFDY,4.54 / 5.45 / nd,7 of 9 (5.11)
GFTFDDYAMH,GISWNSGSIGWADSVK,TGRGGGYFDY,nd / nd / nd,0 of 9
GFTFDDYAMY,GISWNSGSIGYADSVK,VGRGGGYFTK,4.23 / 3.60 / 4.91,3 of 9 (4.51)
GFTFDDYAQH,GISWNSGSIGYADSVK,VGRIGGYFDY,nd / nd / nd,0 of 9
GFTFDDYAMH,GIPWNSGDIGYADSVK,VYRGGGYFDY,nd / nd / nd,0 of 9
GFTFDDYAMH,GISWNSGSIGYADSQK,VGRGGGPFFY,3.90 / 4.81 / nd,4 of 9 (4.57)
GFTFDDYAMH,GISWNSGSIGYADSVK,VGSGEGYFDY,2.34 / 2.44 / 2.17,1 of 9 (4.09)
GFTFDDYAMH,GISWNSGSIGYADSVT,VGMGGGYFDP,nd / 3.89 / 5.30,3 of 9 (4.74)
GFTFDDKAMH,GISWNSGSIGYADSVK,MGRGGGYFDS,nd / nd / nd,0 of 9
GNTFDDYAMH,GISWNSGSIGYADSVK,VGRGWGYFDI,nd / nd / nd,3 of 9 (3.75)
GFTFDEYAMH,GISWNSGNIGYADSVK,VGRGGGYFDQ,nd / 4.11 / nd,1 of 9 (3.30)
GFTFDDYAML,GVSWNSGSIGYADSVK,VGRGGGYADY,4.21 / 4.90 / 4.73,5 of 9 (4.63)
GFTFDDYAMH,GISWNSGSIGYVDSEK,VGRGYGYFDY,nd / nd / nd,0 of 9
GFTFDDYAMH,GISWNSDSIGYADSVK,VGRGGTYFDY,nd / 6.00 / nd,1 of 9 (3.74)
HFTFDCYAMH,GISWNSGSIGYADGVK,VGRGGGYFDY,nd / nd / nd,1 of 9 (2.91)
RFTFDDYCMH,GISWNSGSIGYADSVK,VGRGWGYFDY,nd / nd / nd,0 of 9
GFTNDDYAMH,GISWNSGHIGYADSCK,VGRGGGYFDY,nd / nd / nd,0 of 9
GFTFVDYAMH,GISWNSGSIGYADSVK,VGEGGGYFDY,nd / nd / nd,0 of 9
GFTFDDYAMH,KISWNSIIIGYADSVK,VGRGGGYFDY,nd / 4.12 / nd,1 of 9 (4.88)
GYVFDDYAMH,GISWNSGSIGYADSVK,VGRGGGYFDY,nd / nd / nd,0 of 9
GFTRDDYAMH,GISWNSGSIGYANSVK,VGDGGGYFDY,4.01 / 6.08 / 4.00,3 of 9 (4.18)
SFTFDDYAMH,GISWNSGSIGYADSVW,VGRGGGYFDC,nd / nd / nd,1 of 9 (5.03)
DFTFDDYAMH,GISWNSGSDGYADSVK,VMRGGGYFDY,4.55 / nd / nd,2 of 9 (4.75)
GFTFDDYAMH,NISWNMGSIKYADSVK,VGRGGGYFDY,nd / nd / nd,0 of 9
GFTFDDYAMH,HISLNSFSIGYADSVK,VGRGGGYFDY,5.51 / 4.57 / 4.41,8 of 9 (5.26)
GFTFDDYAMH,GISWNSGSLGYSDSVK,VGRRGGYFDY,nd / nd / nd,0 of 9
GFTFDDYAMH,GISWNSGSIGYADSWK,VGDGGGVFDY,4.41 / nd / nd,3 of 9 (4.23)
GFTFDDYAMH,GISGNSGSIPYADSVK,VGRGGGYFDY,nd / nd / nd,1 of 9 (4.25)
CFTFGDYAMH,GISWNSGSIGYADSVK,VGRGGGYFAY,1.66 / 1.33 / 0.96,1 of 9 (5.65)
GFTFADYAMH,GISWNSGSIGYAPSVK,VGNGGGYFDY,2.18 / 2.15 / 1.93,3 of 9 (4.90)
GFTFDDYPRH,GISWNSSSIGYADSVK,VGRGGGYFDY,nd / nd / nd,2 of 9 (3.84)
GFTFDDYAMH,RISWNSGSIGYADSVK,VGRGGGYFQM,3.91 / 4.75 / nd,5 of 9 (4.91)
GFTFDDYGMH,GISWNSGSKGYADSVK,VGRGGLYFDY,0.18 / 0.10 / -0.68,7 of 9 (5.32)
GFTFDDYAMH,GISWNSGSIGYADSVK,VGRCYGGFDY,1.14 / 1.18 / 0.73,8 of 9 (5.36)
GFTWDDYAMH,GISWNSGSIGYADSVK,VGAGGGYFQY,nd / nd / nd,0 of 9
GFTFDDYAMH,GISWNSGSIKYADSVK,VGRGGGYFDC,nd / 3.20 / 3.03,2 of 9 (3.27)
GFTFDDYAMH,GISWNSGSIGKADSVK,VGSGGGYKDY,nd / nd / 3.81,1 of 9 (3.31)
GFTFDDYFMH,GISWNSISIGYADSVK,VGRGGGYFDY,nd / nd / nd,0 of 9
GKTFDDYAMH,GISWNSGSIGYFDSVL,VGRGGGYFDY,4.09 / nd / nd,0 of 9
GFTFDDYAMH,GIVWNSGSIGYADSVK,VGRGGGRFVY,nd / nd / nd,0 of 9

Repeated from above, the 7 best binders with a signal in all replicates:

CDR-H1,CDR-H2,CDR-H3,log10 Kd (nM) by replicate,control signals
GFTFDDYGMH,GISWNSGSKGYADSVK,VGRGGLYFDY,0.18 / 0.10 / -0.68,7 of 9 (5.32)
GFTFDDYAMH,GISWNSGSIGYADSVK,VGRCYGGFDY,1.14 / 1.18 / 0.73,8 of 9 (5.36)
CFTFGDYAMH,GISWNSGSIGYADSVK,VGRGGGYFAY,1.66 / 1.33 / 0.96,1 of 9 (5.65)
GFTFADYAMH,GISWNSGSIGYAPSVK,VGNGGGYFDY,2.18 / 2.15 / 1.93,3 of 9 (4.90)
GFTFDDYAMH,GISWNSGSIGYADSVK,VGSGEGYFDY,2.34 / 2.44 / 2.17,1 of 9 (4.09)
GFTSDDYKMH,GISWNSGSIGYADSVK,VGRGGGYFDY,3.64 / 3.84 / 5.20,4 of 9 (4.68)
GFTFDDYAMY,GISWNSGSIGYADSVK,VGRGGGYFTK,4.23 / 3.60 / 4.91,3 of 9 (4.51)

From the AlphaSeq antibody data of Engelhart et al. 2022 (doi:10.1038/s41597-022-01779-4), copy in the FLAb collection.